US20140024677A1, “METHODS FOR INDUCING MITOCHONDRIAL BIOGENESIS” (MUSC Foundation For Research Development, priority 2012, published 2014)
Like-named read-outs stand apart in the source and are kept apart here.

Experiments:
[1] = tested on: primary renal proximal tubule cells (RPTC); conditions: for Average uncoupled OCR ratio: 5 μM, fold change in FCCP-OCR relative to DMSO controls, LOPAC compounds
[2] = tested on: primary renal proximal tubule cells (RPTC); conditions: cited from earlier work

Q: For `NCCc1ccc(O)c(O)c1` [dopamine], which “Change in FCCP-OCR relative to vehicle control” value ([1]; RPTC, 24 hr, formoterol 30 nM, isoproterenol 10, 100, 1000 nM, BRL 37344 100, 300, 1000 nM, catecholamines 30 and 100 nM) is on record?
A: No significant changes

Q: With `CNC[C@H](O)c1ccc(O)c(O)c1` [epinephrine] as the compound, how does the “Change in FCCP-OCR relative to vehicle control” value [1] read?
A: No significant changes

Q: And the “MB activity previously reported (Wills et al. 2012)” value [2]?
A: not stimulate MB

Q: Which “Average uncoupled OCR ratio” value ([1]; RPTC, 24 hr) does the source give for (±)-Epinephrine here?
A: 0.92 ± 0.03

Q: Which “Average uncoupled OCR ratio” value ([1]; RPTC, 24 hr) does the source give for (−)-Epinephrine here?
A: 1.03 ± 0.1
